From PubChem BioAssay (NCI)
Some of these compounds have results that are not shown, active ones among them.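 Cultured in 96-well plates, cells were exposed to test compound for 48 hours across five concentrations. GI50 marks 50% less growth. At the TGI there is no net growth.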

Tests used:
Test in all cases: inhibition of tumour cell growth, NCI panel, 48 h
[1] = test system: 786-0 renal
[2] = test system: A549 NSCLC
[3] = test system: ACHN renal
[4] = test system: BT-549 breast
[5] = test system: CAKI-1 renal
[6] = test system: CCRF-CEM leukemia
[7] = test system: COLO 205 colon
[8] = test system: DU-145 prostate
[9] = test system: EKVX NSCLC
[10] = test system: HCC-2998 colon
[11] = test system: HCT-116 colon
[12] = test system: HCT-15 colon
[13] = test system: HL-60(TB) leukemia
[14] = test system: HOP-62 NSCLC
[15] = test system: HT29 colon
[16] = test system: IGROV1 ovarian
[17] = test system: K-562 leukemia
[18] = test system: KM12 colon
[19] = test system: LOX IMVI melanoma
[20] = test system: M14 melanoma
[21] = test system: MALME-3M melanoma
[22] = test system: MCF7 breast
[23] = test system: MDA-MB-231 breast
[24] = test system: MDA-MB-435
[25] = test system: MDA-N
[26] = test system: MOLT-4 leukemia
[27] = test system: NCI-H226 lung
[28] = test system: NCI-H23 lung
[29] = test system: NCI-H522 lung
[30] = test system: NCI/ADR-RES ovarian
[31] = test system: OVCAR-3 ovarian
[32] = test system: OVCAR-5 ovarian
[33] = test system: OVCAR-8 ovarian
[34] = test system: PC-3 prostate
[35] = test system: RPMI-8226 leukemia
[36] = test system: RXF 393 renal
[37] = test system: SF-268 CNS
[38] = test system: SF-295 CNS
[39] = test system: SF-539 CNS
[40] = test system: SK-MEL-28 melanoma
[41] = test system: SK-MEL-5 melanoma
[42] = test system: SK-OV-3 ovarian
[43] = test system: SN12C renal
[44] = test system: SNB-19 CNS
[45] = test system: SNB-75 CNS
[46] = test system: SR leukemia
[47] = test system: SW-620 colon
[48] = test system: T-47D breast
[49] = test system: TK-10 renal
[50] = test system: U251 CNS
[51] = test system: UACC-257 melanoma
[52] = test system: UACC-62 melanoma
[53] = test system: UO-31 renal

SMILES: C=C(C)C#CC(O)(C(=O)OC1C2CCN(CC2)C1C)C1CCCCC1 (stereo unspecified)
- GI50 [1]: > 100 µM
- TGI [1]: > 100 µM
- GI50 [2]: > 100 µM
- TGI [2]: > 100 µM
- GI50 [3]: > 100 µM
- TGI [3]: > 100 µM
- GI50 [4]: 7.6 µM
- TGI [4]: > 100 µM
- GI50 [5]: > 100 µM
- TGI [5]: > 100 µM
- GI50 [6]: 47.2 µM
- TGI [6]: > 100 µM
- GI50 [7]: > 100 µM
- TGI [7]: > 100 µM
- GI50 [8]: > 100 µM
- TGI [8]: > 100 µM
- GI50 [9]: > 100 µM
- TGI [9]: > 100 µM
- GI50 [10]: 25.4 µM
- TGI [10]: 65.9 µM
- GI50 [11]: > 100 µM
- TGI [11]: > 100 µM
- GI50 [12]: 95.7 µM
- TGI [12]: > 100 µM
- GI50 [13]: 54 µM
- TGI [13]: > 100 µM
- GI50 [14]: > 100 µM
- TGI [14]: > 100 µM
- GI50 [15]: 29 µM
- TGI [15]: > 100 µM
- GI50 [16]: 38.5 µM
- TGI [16]: > 100 µM
- GI50 [17]: 33.7 µM
- TGI [17]: > 100 µM
- GI50 [18]: > 100 µM
- TGI [18]: > 100 µM
- GI50 [19]: 77.9 µM
- TGI [19]: > 100 µM
- GI50 [20]: 32.4 µM
- TGI [20]: > 100 µM
- GI50 [21]: > 100 µM
- TGI [21]: > 100 µM
- GI50 [22]: > 100 µM
- TGI [22]: > 100 µM
- GI50 [23]: > 100 µM
- TGI [23]: > 100 µM
- GI50 [24]: > 100 µM
- TGI [24]: > 100 µM
- GI50 [25]: > 100 µM
- TGI [25]: > 100 µM
- GI50 [26]: 52.6 µM
- TGI [26]: > 100 µM
- GI50 [27]: > 100 µM
- TGI [27]: > 100 µM
- GI50 [28]: > 100 µM
- TGI [28]: > 100 µM
- GI50 [29]: > 100 µM
- TGI [29]: > 100 µM
- GI50 [30]: 21.6 µM
- TGI [30]: 57.2 µM
- GI50 [31]: > 100 µM
- TGI [31]: > 100 µM
- GI50 [32]: > 100 µM
- TGI [32]: > 100 µM
- GI50 [33]: > 100 µM
- TGI [33]: > 100 µM
- GI50 [34]: > 100 µM
- TGI [34]: > 100 µM
- GI50 [35]: 64.6 µM
- TGI [35]: > 100 µM
- GI50 [36]: 99.7 µM
- TGI [36]: > 100 µM
- GI50 [37]: > 100 µM
- TGI [37]: > 100 µM
- GI50 [38]: > 100 µM
- TGI [38]: > 100 µM
- GI50 [39]: 59.9 µM
- TGI [39]: > 100 µM
- GI50 [40]: > 100 µM
- TGI [40]: > 100 µM
- GI50 [41]: 24.2 µM
- TGI [41]: 66.6 µM
- GI50 [42]: > 100 µM
- TGI [42]: > 100 µM
- GI50 [43]: > 100 µM
- TGI [43]: > 100 µM
- GI50 [44]: > 100 µM
- TGI [44]: > 100 µM
- GI50 [45]: 62.6 µM
- TGI [45]: > 100 µM
- GI50 [46]: 63.3 µM
- TGI [46]: > 100 µM
- GI50 [47]: > 100 µM
- TGI [47]: > 100 µM
- GI50 [48]: > 100 µM
- TGI [48]: > 100 µM
- GI50 [49]: > 100 µM
- TGI [49]: > 100 µM
- GI50 [50]: 80.3 µM
- TGI [50]: > 100 µM
- GI50 [51]: 26.9 µM
- TGI [51]: 68.2 µM
- GI50 [52]: > 100 µM
- TGI [52]: > 100 µM
- GI50 [53]: 14.2 µM
- TGI [53]: 52.8 µM
